Values of other authors as cited in US20060234299A1, “Protein scaffolds and uses thereof” (Avidia Research Institute, priority 2004, published 2006).

Details: commercial drugs

Substance	Human T½ [h]
Herceptin: Her2 Antibody	144
Pegasys: rIFN-a-PEG	78
Rebif: rIFN-b	69
